Sequences of proteins named here, by UniProt entry; tags and fusion partners are left off.
UniProt P23458, whole entry: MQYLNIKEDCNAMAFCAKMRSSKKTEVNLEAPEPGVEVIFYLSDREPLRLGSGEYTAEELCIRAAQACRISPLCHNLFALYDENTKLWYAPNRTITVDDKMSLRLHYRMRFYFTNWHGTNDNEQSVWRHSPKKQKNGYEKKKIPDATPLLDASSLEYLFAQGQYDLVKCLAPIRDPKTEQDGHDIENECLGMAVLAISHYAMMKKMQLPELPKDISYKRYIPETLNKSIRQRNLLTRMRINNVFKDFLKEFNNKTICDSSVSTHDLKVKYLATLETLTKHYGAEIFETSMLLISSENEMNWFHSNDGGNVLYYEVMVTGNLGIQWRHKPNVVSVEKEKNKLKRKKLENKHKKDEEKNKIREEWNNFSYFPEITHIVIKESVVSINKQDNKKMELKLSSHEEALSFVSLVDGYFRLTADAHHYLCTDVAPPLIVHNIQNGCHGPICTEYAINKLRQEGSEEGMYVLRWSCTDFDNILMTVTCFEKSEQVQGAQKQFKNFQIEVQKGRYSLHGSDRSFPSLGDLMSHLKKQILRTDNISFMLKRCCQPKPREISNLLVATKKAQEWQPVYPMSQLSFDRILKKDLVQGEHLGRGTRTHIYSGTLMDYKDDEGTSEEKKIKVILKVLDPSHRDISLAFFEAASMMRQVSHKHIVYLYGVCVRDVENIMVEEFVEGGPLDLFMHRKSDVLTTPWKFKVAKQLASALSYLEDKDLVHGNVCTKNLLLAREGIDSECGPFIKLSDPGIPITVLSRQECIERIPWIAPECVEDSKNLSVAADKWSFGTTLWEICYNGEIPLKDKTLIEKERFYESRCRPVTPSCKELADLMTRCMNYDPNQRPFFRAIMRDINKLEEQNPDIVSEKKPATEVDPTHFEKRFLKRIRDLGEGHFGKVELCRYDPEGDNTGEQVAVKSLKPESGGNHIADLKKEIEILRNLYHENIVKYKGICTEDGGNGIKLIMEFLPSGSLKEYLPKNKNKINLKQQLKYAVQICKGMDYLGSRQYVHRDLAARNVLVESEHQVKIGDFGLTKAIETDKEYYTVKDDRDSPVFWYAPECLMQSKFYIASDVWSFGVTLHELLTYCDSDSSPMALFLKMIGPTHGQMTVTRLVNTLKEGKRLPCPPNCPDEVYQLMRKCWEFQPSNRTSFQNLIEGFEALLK

In US11524968B2, “Heterocyclic compound as a protein kinase inhibitor” (HK inno.N Corporation, priority 2017, dated 2022):

Target: JAK1 (Homo sapiens (Human), UniProt P23458)
Test: Analysis of JAK1 activity inhibition ability (ADP-Glo Kinase Assay)
Details: JAK1 enzyme, ADP-Glo luminescence, ATP 250 uM, IRS-itide substrate, 30° C. 40 minutes
Procedure: Test Example 1: Analysis of JAK1 Activity Inhibition Ability of Compound of Formula 1 (ADP-Glo™ Kinase Assay)
A JAK inhibition ability of a compound according to the present invention was identified as follows.
A control material and a test material were prepared for each concentration, in such a way that they were diluted by means of DMSO. At the same time, ATP (250 uM) and JAK substrate (JAK1, IRS-itide 40 ng/mL) were prepared, in such a way that they were diluted by means of kinase buffer (40 mM Tris-HCl pH 7.5, 20 mM MgCl2, 0.5 mg/mL BSA, 50 uM DTT).
A test drug for each concentration, substrate, ATP and JAK enzyme were mixed in an eppendorf tube, and reacted in a 30° C. incubator for 40 minutes.
ADP-Glo™ reagent contained in ADP-Glo™ Kinase Enzyme System (Promega, USA, V9571) was added into each eppendorf tube, and reacted in a 30° C. incubator for 40 minutes. A kinase detection reagent contained in ADP-Go™ Kinase Enzyme System was inserted into the eppendorf tube, then an integration time was set to 1 second by using Wallac Victor 2™, then luminescence was measured, and then JAKs phosphorylation inhibition ability of the test material was analyzed. The concentration of the compound, which causes 50% of the JAK enzyme activity inhibition in comparison With the control group, was determined as IC50 (nM) of an inhibitor, wherein the results thereof are shown in a following table 1.

SMILES: CS(=O)(=O)N1C2CCC1CN(c1cc(NC(=O)C3CC3)nc3[nH]ccc13)C2
- IC50: 20 to 200 nM
